Test results as given in PubChem BioAssay AID1671463 (Sanford-Burnham Center for Chemical Genomics, 2021).
The list shows a part of the results, in another mix than the full data. Activity calls are given as the source filed them. No stated cut-off is given here; in the data, active means activation above about 40%; inactive means the rest.

The chains behind the UniProt entries cited, without tags or fusion partners.
UniProt P16066, whole entry: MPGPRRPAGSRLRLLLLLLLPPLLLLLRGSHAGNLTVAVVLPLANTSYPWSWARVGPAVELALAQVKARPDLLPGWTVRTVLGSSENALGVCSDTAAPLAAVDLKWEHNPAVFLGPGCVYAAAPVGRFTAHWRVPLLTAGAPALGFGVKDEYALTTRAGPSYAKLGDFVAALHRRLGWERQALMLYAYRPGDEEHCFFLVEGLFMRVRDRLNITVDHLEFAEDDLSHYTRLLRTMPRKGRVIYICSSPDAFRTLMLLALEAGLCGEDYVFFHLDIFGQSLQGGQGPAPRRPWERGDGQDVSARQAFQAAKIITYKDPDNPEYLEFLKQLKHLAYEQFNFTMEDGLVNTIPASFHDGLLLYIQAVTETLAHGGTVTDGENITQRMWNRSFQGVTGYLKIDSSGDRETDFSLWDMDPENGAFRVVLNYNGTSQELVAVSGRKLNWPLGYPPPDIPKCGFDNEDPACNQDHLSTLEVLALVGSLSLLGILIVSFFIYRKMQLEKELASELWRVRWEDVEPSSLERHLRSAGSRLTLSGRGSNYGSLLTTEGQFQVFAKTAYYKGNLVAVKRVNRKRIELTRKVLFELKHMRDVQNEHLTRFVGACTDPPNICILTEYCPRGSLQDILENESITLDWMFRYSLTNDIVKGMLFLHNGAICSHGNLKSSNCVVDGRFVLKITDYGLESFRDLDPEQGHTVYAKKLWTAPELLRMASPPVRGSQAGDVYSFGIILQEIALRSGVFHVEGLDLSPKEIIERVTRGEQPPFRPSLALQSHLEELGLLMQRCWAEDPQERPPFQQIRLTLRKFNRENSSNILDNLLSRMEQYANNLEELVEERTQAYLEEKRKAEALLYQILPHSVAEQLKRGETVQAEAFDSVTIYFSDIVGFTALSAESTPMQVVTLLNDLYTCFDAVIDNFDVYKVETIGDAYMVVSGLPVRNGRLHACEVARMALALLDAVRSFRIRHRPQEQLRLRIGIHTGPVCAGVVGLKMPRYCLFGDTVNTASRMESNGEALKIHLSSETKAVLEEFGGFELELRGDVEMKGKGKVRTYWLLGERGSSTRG

Each compound was assayed against Atrial natriuretic peptide receptor 1 (Homo sapiens) (UniProt P16066) (assay: GC-A stimulated cGMP production enhancers – HEK293 GC-A cells, cGMP TR-FRET, EC30 ANP, primary screen (AID 1671463)). Details: at 10 µM, stronger effect = higher value, 0% at EC30 ANP, 100% saturating ANP.

Row | SMILES | activation
1 | CCN1CCC(Nc2cccc(F)c2)CC1 | inactive: -0.13%
2 | COc1ccc(C(c2nnnn2C2CCCCC2)N2CCC(n3c(=O)[nH]c4ccccc43)CC2)cc1 (stereo not given) | inactive: -2.19%
3 | CC(C)(C)n1nnnc1C(c1ccnc2ccccc12)N1CCC(n2c(=O)[nH]c3ccccc32)CC1 (stereo not given) | inactive: -7.15%
4 | Cc1ccccc1NC1(C#N)CCN(Cc2ccccc2)CC1 | inactive: 0.46%
5 | CN(C)c1ccc(C(=O)NCC2(N3CCCCC3)CCCCC2)cc1 | inactive: -6.1%
6 | Cn1c(=O)[nH]cc(N(CCCl)CCCl)c1=O | inactive: 0.15%
7 | O=C(NCC1(N2CCCCC2)CCCCC1)c1ccco1 | inactive: 3.55%
8 | CCC(c1nnnn1C1CCCCC1)N1CCC(n2c(=O)[nH]c3ccccc32)CC1 (stereo not given) | inactive: -13.9%
9 | COc1cccc(C(c2nnnn2C2CCCCC2)N2CCC(n3c(=O)[nH]c4ccccc43)CC2)c1OC (stereo not given) | inactive: -5.56%
10 | CC(=O)N(c1ccccc1)C1CCNCC1 | inactive: 1.74%
11 | COc1cc(OC)cc(C(=O)NCC2(N3CCCCC3)CCCCC2)c1 | inactive: 1.38%
12 | O=c1[nH]c2ccccc2n1C1CCN(C(c2ccnc3ccccc23)c2nnnn2C2CCCCC2)CC1 (stereo not given) | inactive: -3.21%
13 | Fc1ccccc1NC1CCN(Cc2ccccc2)CC1 | inactive: 0.62%
14 | Cc1ccc(C(=O)NCC2(N3CCCCC3)CCCCC2)o1 | inactive: 1.82%
15 | Cc1ccc(NC2(C#N)CCN(Cc3ccccc3)CC2)cc1 | inactive: -2.23%
16 | COc1cccc(C(c2nnnn2C2CCCC2)N2CCC(n3c(=O)[nH]c4ccccc43)CC2)c1OC (stereo not given) | inactive: -4.78%
17 | COc1cc(OC)cc(C(=O)NCC2(N3CCOCC3)CCCCC2)c1 | inactive: -3.12%
18 | COc1cccc(C(=O)N(c2cc(C)cc(C)c2)C2CCN(C(=O)OC(C)(C)C)CC2)c1 | inactive: 3.1%
19 | CCC(CO)(C(=O)OC1CN2CCC1CC2)c1ccccc1 (stereo not given) | inactive: -7.9%
20 | CN1CCC(Nc2ccc(Cl)cc2)CC1 | inactive: -1.54%
21 | CN1CCC(Nc2ccc(F)c(Cl)c2)CC1 | inactive: 5.6%
22 | CCOc1ncccc1C(=O)NCC1(N2CCOCC2)CCCCC1 | inactive: -1.47%
23 | O=C(O)C1(Nc2ccccc2)CCN(Cc2ccccc2)CC1 | inactive: -1.77%
24 | NN(c1ccccc1)C1CCN(CCc2ccccc2)CC1 | inactive: 0.77%
25 | CC(C)(C)OC(=O)N1CCC(Nc2ccccc2)CC1 | inactive: -0.05%
26 | O=c1[nH]c2ccccc2n1C1CCN(C(c2cc3ccccc3o2)c2nnnn2C2CCCC2)CC1 (stereo not given) | inactive: 6.91%
27 | CCCOc1ccc(C(=O)NCC2(N(C)C)CCCCC2)cc1 | inactive: 0.49%
28 | CCOC(=O)N1CCC(Nc2ccc(C)cc2)CC1 | inactive: 0.76%

Row | SMILES | activation
29 | COc1cccc(C(c2nnnn2C(C)(C)C)N2CCC(n3c(=O)[nH]c4ccccc43)CC2)c1OC (stereo not given) | inactive: -2.05%
30 | N/C(=N\O)c1c(N)no[n+]1[O-] | inactive: -0.94%
31 | O=c1[nH]c2ccccc2n1C1CCN(C(c2cccs2)c2nnnn2C2CCCC2)CC1 (stereo not given) | inactive: -2.09%
32 | O=C(OC1CN2CCC1CC2)C1c2ccccc2C=Cc2ccccc21 (stereo not given) | inactive: -32.5%
33 | CCCCn1nnnc1C(c1cccc(OC)c1OC)N1CCC(n2c(=O)[nH]c3ccccc32)CC1 (stereo not given) | inactive: 0.38%
34 | COc1cc(C(=O)NCC2(N3CCOCC3)CCCCC2)cc(OC)c1C | inactive: -2.29%
35 | CCCCn1nnnc1C(c1ccccc1)N1CCC(n2c(=O)[nH]c3ccccc32)CC1 (stereo not given) | inactive: 3.94%
36 | O=C(NCC1(N2CCOCC2)CCCCC1)c1cc(Br)ccc1Cl | inactive: -5.59%
37 | NC(=O)C1(Nc2ccccc2)CCN(Cc2ccccc2)CC1 | inactive: -4.38%
38 | O=c1[nH]c2ccccc2n1C1CCN(C(c2cccs2)c2nnnn2C2CCCCC2)CC1 (stereo not given) | inactive: -2.52%
39 | O=c1[nH]c2ccccc2n1C1CCN(C(c2ccnc3ccccc23)c2nnnn2C2CCCC2)CC1 (stereo not given) | inactive: -6.24%
40 | COc1ccc(C(=O)NCC2(N3CCOCC3)CCCCC2)cc1OC | inactive: 1.21%
41 | CN(C)C1(CNC(=O)c2cccc(C#N)c2)CCCCC1 | inactive: -4.21%
42 | Cc1cc(N(CCCl)CCCl)ccc1C=O | inactive: 3.25%
43 | O=c1[nH]c2ccccc2n1C1CCN(C(c2ccccc2)c2nnnn2C2CCCC2)CC1 (stereo not given) | inactive: -5.45%
44 | CCCN1CCC(Nc2cc(OC)cc(OC)c2)CC1 | inactive: 2.78%
45 | C/C(N)=N\P(=O)(Oc1ccccc1)Oc1ccccc1 | inactive: -0.32%
46 | c1ccc(CN2CCC(Nc3ccccc3)CC2)cc1 | inactive: -0.1%
47 | CC(C)(C)n1nnnc1C(c1cccc2ccccc12)N1CCC(n2c(=O)[nH]c3ccccc32)CC1 (stereo not given) | inactive: -3.37%
48 | N#Cc1ccc(C(=O)NCC2(N3CCCCC3)CCCCC2)cc1 | inactive: 0.03%
49 | CC(C)(C)OC(=O)N1CCC(N(C(=O)c2ccccc2)c2ccc(Cl)cc2)CC1 | inactive: -6.3%
50 | O=C(NCC1(N2CCCCC2)CCCCC1)c1cccc(C(F)(F)F)c1 | inactive: 6.13%
51 | COc1cc(C(=O)NCC2(N3CCCCC3)CCCCC2)ccc1OC(F)F | inactive: 1.22%
52 | O=C(NCC1(N2CCOCC2)CCCCC1)c1cc(=O)[nH]c2ccccc12 | inactive: 0.46%
53 | CN1CCN(CCOC(=O)C(O)(c2ccccc2)c2ccccc2)CC1 | inactive: -0.61%
54 | CC(C)c1ccc(C(=O)NCC2(N3CCOCC3)CCCCC2)cc1 | inactive: 0.54%
55 | COc1ccc(NC2CCN(C(=O)OC(C)(C)C)CC2)cc1 | inactive: 3.69%
